Shown are actives, neighbours in structure and some others; about 1.5% of the full set was active somewhere.
RAD54 branch: inhibitors of human RAD54 branch migration; Q92698; RAD54 Holliday junction branch migration, FAM/BHQ fluorescence; inhibition, % at 10.4 µM; 0.14% of 360,000 active; AID 602329;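 active means mean normalized replicate activity at least 40 and at least half of replicates scoring 40 or more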;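 further: inhibitors cause a drop in the FAM fluorescence signal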
RAD52 inh: inhibitors of human RAD52 DNA annealing. inhibition, % at 18.7 µM. AID 651710. 0.46% of 360,000 active. recombinant RAD52 DNA annealing, FRET fluorescence. P43351;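 active means every replicate showing at least 50% inhibition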
GSIS activator: GLuc luminescence reporter in INS-1E cells, primary screen for activators of glucose-dependent secretion of insulin; INS-1E GLuc reporter insulin secretion, 2-3 h; activation, % at 16.6 µM; 0.61% of 370,000 active;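 active means lowest replicate activation of at least 40%, so every replicate reaches that level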
Yeast UUG start: modulators of yeast start codon fidelity, primary screen, whole organism, S. cerevisiae, single point, plate reader | AID 602363, 2012 | S. cerevisiae UUG-firefly luciferase reporter, luminescence/redox ratio | activity score, % at 18.7 µM | hit rate 0.13% among 350,000;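 active = replicate mean at a twofold rise or more, about +100% in these data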;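 also: firefly luciferase made from a UUG start codon reports start codon fidelity; reporter light over untreated wells divided by growth signal over untreated wells; some hits fall short of that in this replicate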
PglD inh: blocks C. jejuni PglD acetyltransferase activity. 0.098% of 360,000 active. inhibition, % at 12.5 µM. AID 602405. purified PglD enzyme, DTNB colorimetric CoA detection; in the data active means inhibition above about 16%, passing the limit was not always enough
CASP6 VEID inh: caspase-6 (human) enzyme inhibition. P55212. inhibition, % at 12.5 µM. purified caspase-6, Z-VEID-R110 cleavage fluorescence. 0.53% of 350,000 active;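 active means mean inhibition across replicates at least about 35%, with every replicate also reaching that limit, limit read from the data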
Numbers stand for hits; - = inactive; . = no result given.

SMILES	RAD54 branch	RAD52 inh	GSIS activator	Yeast UUG start	PglD inh	CASP6 VEID inh
CC(C)(C)c1nnc(NC(=O)Nc2ccc(Cl)cc2)s1	.	-	-	.	.	-
c1ccc(Cn2nnc3c(NCc4ccc5c(c4)OCO5)nc(C4CC4)nc32)cc1	-	.	.	-	-	.
Cc1nc(NCc2ccc3c(c2)OCO3)c2nnn(Cc3ccccc3)c2n1	-	.	50.1	-	-	.
CN1CCc2cc3c(c4c2[C@H]1[C@H](O)c1ccccc1-4)OCO3	98.6	-	.	-	-	49.3
CCC(C)C(NC(=O)c1ccccc1NC(=O)c1ccc(OC)cc1)C(=O)NCCCn1ccnc1 (configuration not stated)	-	-	-	-	-	-
C[C@H](CO)N1C[C@H](C)[C@H](CN(C)C(=O)CC2CC2)Oc2cc(C#CCN(C)C)ccc2S1(=O)=O	-	-	-	-	-	-
C=CCn1c(SCC(=O)N2CCN(c3ccccc3)CC2)nc2c([nH]c3ccccc32)c1=O	-	-	-	-	-	-
C=CCn1c(SCC(=O)N2CCOCC2)nc2c([nH]c3ccccc32)c1=O	-	-	43.2	-	-	-
CCOc1ccc(NC(=O)CC2CC(C)(C)OC2=O)cc1 (configuration not stated)	-	.	.	-	-	.
CCC(C)(CC(=O)Nc1nccs1)c1ccccc1 (configuration not stated)	-	-	40.6	-	-	-
O=C(CCSc1ccccc1)Nc1nccs1	.	.	-	.	.	.
Cc1ccc(C)c(NC(=O)CSc2nnc(CNC(=O)c3ccco3)o2)c1	-	-	-	-	-	-
CC(C)CC(=O)Nc1nnc(SCC(=O)NC2CCCC2)s1	-	-	120.9	-	-	-
CC(C)CC(=O)Nc1nnc(SCC(=O)NC2CCCCC2)s1	-	-	-	-	-	-
CC(C)C1COC(c2cccc3ccccc23)=N1 (configuration not stated)	-	-	.	-	-	-
CCc1noc(C)c1C(=O)OCC(=O)NC(C)c1ccccc1 (configuration not stated)	-	-	-	-	-	-
O=C(O)c1ccccc1/C=N/NC(=S)NC1CCCCC1	-	-	75.5	-	-	-
O=C(O)c1ccccc1/C=N/NC(=O)C1CCCCC1	-	-	-	-	-	-
O=C(C[C@@H]1C=C[C@@H](NC(=O)c2ccc(F)cc2)[C@@H](CO)O1)NCc1ccncn1	-	-	-	-	-	86.7
O=C1O[C@H](c2ccccc2)[C@H](c2ccccc2)N2[C@H]1[C@@H](C(=O)N1CCN(c3ncccn3)CC1)[C@]1(C(=O)Nc3ccccc31)[C@H]2c1ccc(O)cc1	-	-	.	-	-	-
O=C1O[C@@H](c2ccccc2)[C@@H](c2ccccc2)N2[C@@H](c3ccccc3OCCO)[C@]3(C(=O)Nc4ccc(C#CCCO)cc43)[C@@H](C(=O)N3CCN(c4ncccn4)CC3)[C@H]12	-	76.2	.	-	-	-
COc1ccc(C#Cc2ccc3c(c2)[C@]2(C(=O)N3)[C@H](C(=O)N3CCN(c4ncccn4)CC3)[C@H]3C(=O)O[C@H](c4ccccc4)[C@H](c4ccccc4)N3[C@@H]2c2ccc(OCCO)cc2)cc1	-	-	.	-	-	-
O=C1O[C@@H](c2ccccc2)[C@@H](c2ccccc2)N2[C@@H](c3ccc(OCCO)cc3)[C@]3(C(=O)Nc4ccc(C#CCCO)cc43)[C@@H](C(=O)N3CCN(c4ncccn4)CC3)[C@H]12	-	51.9	.	-	-	-
O=C1O[C@@H](c2ccccc2)[C@@H](c2ccccc2)N2[C@@H](c3ccc(O)cc3)[C@]3(C(=O)Nc4ccccc43)[C@@H](C(=O)N3CCCCCCC3)[C@H]12	-	57.5	.	-	-	-
O=C1O[C@@H](c2ccccc2)[C@@H](c2ccccc2)N2[C@@H](c3ccccc3OCCO)[C@]3(C(=O)Nc4ccc(C#CC5=CCCCC5)cc43)[C@@H](C(=O)N3CCN(c4ncccn4)CC3)[C@H]12	-	-	.	-	-	-
SMILES	RAD54 branch	RAD52 inh	GSIS activator	Yeast UUG start	PglD inh	CASP6 VEID inh
O=C(NCCc1c[nH]c2ccccc12)C(=O)NCC(c1ccco1)N1CCN(c2ccccc2)CC1 (configuration not stated)	.	.	-	.	.	.
COCC#Cc1ccc2c(c1)O[C@H](CN(C)Cc1ccc3c(c1)OCO3)[C@@H](C)CN([C@H](C)CO)S2(=O)=O	-	-	-	-	-	-
CCOC(=O)C1=C(C)NC(SC(C)=O)=NC1c1ccc(OC(C)=O)c(OC)c1 (configuration not stated)	-	.	.	-	-	.
COc1ccc(NC(=O)N2CCCCN3[C@H](CO)[C@H](c4ccc(C5=CCCC5)cc4)[C@@H]3C2)cc1	-	-	.	-	-	-
COc1ccc(NC(=O)N2CCCCN3[C@H](CO)[C@@H](c4ccc(C5=CCCC5)cc4)[C@H]3C2)cc1	-	64.9	.	-	-	-
COc1ccc(NC(=O)N2CCCCN3[C@@H](CO)[C@H](c4ccc(C5=CCCCC5)cc4)[C@@H]3C2)cc1	-	71.2	-	-	-	-
COc1ccc(C#Cc2ccc3c(c2)O[C@H](CN(C)C(=O)NC2CCCCC2)[C@@H](C)CN([C@H](C)CO)S3(=O)=O)cc1	-	-	-	-	-	-
CC(C)(C)c1ccc(C(=O)Nn2c(CCC(=O)O)ccc2-c2cccs2)cc1	-	-	-	-	-	39.3
O=C(O)CCc1ccc(-c2cccs2)n1NC(=O)c1ccccc1Br	-	.	.	-	-	.
COc1ccc(/C=N/n2c(-c3n[nH]c4c3CCC4)n[nH]c2=S)cc1OC	.	.	44.7	.	.	.
COc1cc(/C=N/n2c(-c3n[nH]c4c3CCC4)n[nH]c2=S)ccc1O	.	-	-	.	.	-
O=C(O)c1ccc(N2C(=O)CC(N3CCN(c4cccc(C(F)(F)F)c4)CC3)C2=O)cc1 (configuration not stated)	-	-	-	-	-	90.2
O=C(O)c1ccc(N2C(=O)CC(N3CCN(c4cccc(Cl)c4)CC3)C2=O)cc1 (configuration not stated)	-	-	-	-	-	-
CCOc1cc(/C=C(/NC(C)=O)C(=O)O)cc(Cl)c1OCc1cccc(Br)c1	-	-	-	-	-	39.1
O=C(/C=C/c1ccccc1)N(Cc1ccc(Cl)cc1)C1CCS(=O)(=O)C1 (configuration not stated)	-	-	-	-	-	-
CC1(Cc2cc(Cl)ccc2C(F)(F)F)C(=O)Nc2cc(C(F)(F)F)ccc21 (configuration not stated)	-	-	298.0	-	-	-
CC1(Cc2cc(Cl)ccc2C(F)(F)F)C(=O)Nc2ccc(-c3ccc(F)c(Cl)c3)cc21 (configuration not stated)	-	-	282.9	-	-	-
COc1ccccc1-c1ccc2c(c1)C(C)(Cc1cc(Cl)ccc1C(F)(F)F)C(=O)N2 (configuration not stated)	-	-	-	-	-	-
